In patent publication US9096663B2, “Compositions and methods for treating conditions related to ephrin signaling with cupredoxins and mutants thereof” (The Board of Trustees of the University of Illinois, priority 2001, dated 2015):

Test system: Melanoma UISO-Mel-2
Details: several concentrations, 24 h

With VRIKLSTPGVYGVYCE [Plc 70-84] the “dose dependence of cytotoxicity, melanoma UISO-Mel-2” value was “increasing peptide concentrations led to increasing cytotoxicity”.
